These are literature values, as cited in paper PMC6680850, “Anion Inhibition Profile of the β-Carbonic Anhydrase from the Opportunist Pathogenic Fungus Malassezia restricta Involved in Dandruff and Seborrheic Dermatitis” (Metabolites, 2019).

The structures appear in SMILES notation.

A word on the Ki: it is the dissociation constant of the complex between target and ligand, obtained from inhibition or displacement.

For this series, the target named is hCA II. The note with it: CO2 hydration reaction, 20 °C, pH 8.3, stopped flow; ref [31]; cited from earlier work.

Turning to `CCN(CC)C(=S)S` [Et2NCS2^−, diethyldithiocarbamate], the Ki was 3.1 µM. As to `NS(=O)(=O)O` [NH2SO3H, sulfamic acid], the Ki is 390 µM.
